In PubChem BioAssay AID677 (Vanderbilt High Throughput Screening Facility, 2007):
Only a part is listed here, and it is no random draw. Calls of active or inactive are those of the source.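 How the source made its calls: active means calcium response below the same-plate mean of wells given acetylcholine alone at its 80%-effect dose, minus 3 SD; inactive means the rest.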

Chains of the proteins cited; added tags and fusions are not shown. Lines headed by an entry give the natural chain unless they say otherwise; changes in a name come on top.
UniProt P08482: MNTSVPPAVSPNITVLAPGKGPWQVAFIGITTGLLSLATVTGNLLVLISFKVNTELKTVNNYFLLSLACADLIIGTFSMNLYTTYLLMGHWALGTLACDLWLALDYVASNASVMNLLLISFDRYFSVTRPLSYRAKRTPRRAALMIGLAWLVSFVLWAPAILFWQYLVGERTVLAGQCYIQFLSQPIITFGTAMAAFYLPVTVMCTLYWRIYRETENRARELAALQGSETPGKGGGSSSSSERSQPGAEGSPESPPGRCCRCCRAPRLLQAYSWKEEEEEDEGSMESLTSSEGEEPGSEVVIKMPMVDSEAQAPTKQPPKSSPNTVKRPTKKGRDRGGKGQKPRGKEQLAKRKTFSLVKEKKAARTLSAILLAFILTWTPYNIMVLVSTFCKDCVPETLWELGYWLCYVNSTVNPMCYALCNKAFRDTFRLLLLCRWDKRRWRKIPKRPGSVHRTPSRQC

The molecules below were run against Muscarinic acetylcholine receptor M1 (Rattus norvegicus) (UniProt P08482) (assay: blockers of ACh-evoked M1 calcium signal – CHO cells, Fluo-4 calcium, duplicate, confirmation (AID 677;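 further: raw fluorescence intensity difference in arbitrary instrument units and not normalized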)). Conditions: ACh EC80 antagonism, at 10 µM, active compounds read low.

Compound | calcium response (max-min fluorescence)
C[N+]1(C)[C@@H]2CC(OC(=O)[C@H](CO)c3ccccc3)C[C@H]1[C@@H]1O[C@@H]12 (stereo partly specified) | active: 15.8
